Data published in patent US9107893B2, “Methods, pharmaceutical compositions and kits for use in the treatment of adult T-cell leukemia/lymphoma” (Institut National de la Sante et de la Recherche Medicale …, priority 2009, dated 2015).

Columns and labels:
Tax-driven murine ATL [1] = test: Histopathological and laboratory examination of treated murine ATLs; assay type: in vivo, mouse; conditions: 6 days of treatment
Text: We used the ATL mouse model of Hasegawa (Hasegawa et al., 2006). To test the effect of different targeted therapies, we established a rapid and reproducible model of disease by direct intra-peritoneal transfer of 10^6 spleen cells from Tax transgenic mice into SCID mice (Charles River, USA). Expression of Tax was only detectable at very low levels by Q-PCR. All murine protocols were approved by the Institutional Animal Care and Utilization Committee (IACUC) of the American University of Beirut. All animals were housed in specific pathogen-free housing. Animals were sacrificed by cervical dislocation following deep anesthesia with isoflurane. […]
Tissues from both treated and untreated mice were fixed in neutral buffer formalin (Sigma), then embedded in paraffin, sectioned, stained with hematoxylin and cosin (H&E), and examined by light microscopy. Ki-67 expression was assessed by immuno-histochemistry using rat anti-mouse monoclonal antibody Ki-67, clone TEC-3. […] White blood cell (WBC) counts, serum calcium and serum lactate dehydrogenase levels were determined using routine clinical laboratory techniques. […]
Splenocytes were harvested, filtered, washed twice with cold PBS, fixed in 100% ethanol at −20° C. and kept overnight at −20° C. […] The distribution of cell cycle phases with different DNA contents was determined using a FACScan flow cytometer (Becton Dickinson). […]

Tax-driven murine ATL [2] = test: ATL transplantation model (Tax transgenic spleen cells into SCID mice): survival and cure; assay type: in vivo, mouse; conditions: mice treated from days 6 to 30, continuous; arsenic 5 μg/g/day ip, IFN 10^6 IU/day sc
Text: We used the ATL mouse model of Hasegawa (Hasegawa et al., 2006). To test the effect of different targeted therapies, we established a rapid and reproducible model of disease by direct intra-peritoneal transfer of 10^6 spleen cells from Tax transgenic mice into SCID mice (Charles River, USA). Expression of Tax was only detectable at very low levels by Q-PCR. All murine protocols were approved by the Institutional Animal Care and Utilization Committee (IACUC) of the American University of Beirut. All animals were housed in specific pathogen-free housing. Animals were sacrificed by cervical dislocation following deep anesthesia with isoflurane.
Arsenic trioxide was obtained from Sigma-Aldrich (St Louis, Mo., USA) and recombinant human interferon-alpha (IFN) (Roferon®) from Hoffman-La Roche (Basel, Switzerland). The proteasome inhibitor PS341 or bortezomib (Velcade®) was purchased from Millenium Pharmaceuticals. For in vivo experiments, mice received arsenic (5 μg/g/day) intraperitoneally, IFN (10^6 IU/day) subcutaneously, bortezomib (0.5 mg/Kg/day) through mini-osmotic pumps (Alzet, Charles river). […] None of the different individual or combination treatment regimen was toxic in normal SCID mice (100% survival for more than 3 months; n=3 for each condition). […]
Survival curves were calculated according to the method of Kaplan and Meier. […]

For “IFNα: recombinant human interferon-alpha (Roferon) from Hoffman-La Roche”, which spleen weight (Tax-driven murine ATL [1]) is on record?
The spleen weight was “significant spleen weight reduction”.

What about the survival benefit (Tax-driven murine ATL [2]) of the same substance?
The survival benefit was “significant survival advantage”.
